Here are results for one compound from patent publication US20230398099A1, “METHODS OF TREATING CONDITIONS RELATED TO THE S1P1 RECEPTOR” (Arena Pharmaceuticals, Inc., priority 2020, published 2023).

Protein sequences, listed by entry. Tags and fused reporters are not part of them.
UniProt P21453, whole entry: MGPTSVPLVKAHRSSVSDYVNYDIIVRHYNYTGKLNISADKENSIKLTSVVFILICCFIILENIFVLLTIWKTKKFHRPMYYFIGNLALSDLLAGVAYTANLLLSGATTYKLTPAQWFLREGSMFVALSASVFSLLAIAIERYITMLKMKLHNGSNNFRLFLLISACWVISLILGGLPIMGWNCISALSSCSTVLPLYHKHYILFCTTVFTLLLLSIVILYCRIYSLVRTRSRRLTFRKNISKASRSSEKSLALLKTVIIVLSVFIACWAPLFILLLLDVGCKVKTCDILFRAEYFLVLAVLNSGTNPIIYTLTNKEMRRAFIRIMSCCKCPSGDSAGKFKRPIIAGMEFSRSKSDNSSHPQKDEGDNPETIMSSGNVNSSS

For orientation: Emax means the greatest response seen or fitted, relative to the assay's reference.

The target of test [1] is hS1P1 (Homo sapiens, UniProt P21453). The test can be described thus: S1P1 GTPgS binding assay. The test is classed as biochemical. The following applies: % relative to S1P. In general terms: GTPγS resists hydrolysis and so accumulates on activated G proteins.
Test [2] has as its target hS1PR1 (Homo sapiens, UniProt P21453). Kind of test: b-arrestin recruitment assay. The test is classed as cell-based. The following applies: % relative to S1P. (In general: Activated receptors often draw arrestin, which recruitment assays turn into a signal.)

On to `CCCCCCCCc1ccc(CC[C@](N)(CO)COP(=O)(O)O)cc1` [Fingolimod(P)], for which the Emax in test [1] is given as 90%; in test [2] it was 123%.
